Measured values reported in patent US20070142302A1, “PEPTIDYL PRODRUGS THAT RESIST P-GLYCOPROTEIN MEDIATED DRUG EFFLUX” (The Curators of the University of Missouri, priority 2004, published 2007).
Read-outs that look alike come from different tables or passages of the source.

Test system: P-gp

C[C@]12CC[C@H]3[C@@H](CCC4=CC(=O)CC[C@@]43C)[C@@H]1CC[C@@H]2O [testosterone]
Change in corneal absorption rate (ka) of erythromycin (testosterone 100 μM or 150 μM): No significant difference | Inhibition of P-gp efflux (determined by increased absorption) (testosterone 250 μM): significant inhibition | Inhibition of P-gp efflux (determined by increased absorption) (testosterone 500 μM): highest inhibition
